{
  "source": "patent US7109329B2",
  "about": "“Neurologically active compounds and compounds with multiple activities” (priority 1988, dated 2006)",
  "assay": "Activities and properties of the compounds (Table III codes listed as Specific Properties in Table IV)",
  "settings": "higher levels of activity",
  "data": [
    {"substance": "3-(6-Guanidinoacetoxy-2,5,7,8-tetramethylchroman-2-carbonyl)-3-estrone ester", "values": [
      {"measurement": "Specific Properties", "value": "19, 27 (possible injection into corpus"}
    ]}
  ]
}
